The numbers were not newly measured in patent US11071781B2, “Combination of local and systemic immunomodulative therapies for enhanced treatment of cancer” (Provectus Pharmatech, Inc., priority 2011, dated 2021), which cites them from elsewhere.

The data set concerns melanoma. The settings on record: intralesional therapy, patients.

As for “interleukin-2: interleukin 2, non-specific cytokine”, the “toxicity and side effects” value is on record as “flu like symptoms”.
